This data set in a line: LogP of the perfume ingredients. The conditions noted are these: ingredients of the perfume of Example 9 (Table 9).

Data on one compound can be found in patent US8426353B2, “Process for preparing polyurea microcapsules” (Firmenich SA, priority 2008, dated 2013).

In turn, `CC(=O)OC1CCCCC1C(C)(C)C` (stereo not shown) [Verdox ®, 2-Tert-butyl-1-cyclohexyl acetate] registered a LogP of 4.42.

Broadly, the LogP is the decadic logarithm of the partition coefficient of the neutral form, usually between octanol and water.
